From ChEMBL document CHEMBL4808240, “Design, synthesis and analysis of novel sphingosine kinase-1 inhibitors to improve oral bioavailability” (Bioorg Med Chem Lett, 2021)

Protein sequences, listed by entry. Tags and fused reporters are not part of them.
UniProt Q9NYA1, whole entry: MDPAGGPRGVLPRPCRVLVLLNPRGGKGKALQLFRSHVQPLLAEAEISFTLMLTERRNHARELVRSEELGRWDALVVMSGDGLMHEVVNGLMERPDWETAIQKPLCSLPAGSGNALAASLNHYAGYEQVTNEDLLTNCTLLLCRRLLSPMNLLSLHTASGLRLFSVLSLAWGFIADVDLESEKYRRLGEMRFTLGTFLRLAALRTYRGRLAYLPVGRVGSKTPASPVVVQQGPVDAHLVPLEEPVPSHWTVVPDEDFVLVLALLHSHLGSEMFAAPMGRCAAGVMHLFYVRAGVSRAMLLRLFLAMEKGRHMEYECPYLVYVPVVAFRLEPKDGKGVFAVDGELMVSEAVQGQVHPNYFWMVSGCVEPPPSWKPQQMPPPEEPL

target: Sphingosine kinase 1 (Homo sapiens, UniProt Q9NYA1); test: Inhibition of recombinant full length GST-tagged human SPHK1 expressed in baculovirus expression system incubated for 1 hr in presence of ATP by Alexa Fluor 647 tracer based Adapta assay relative to control; conditions: concentration not given here

SMILES | inhibition [%]
COc1ccc(/C=N/NC(=O)c2cc(-c3ccc4ccccc4c3)[nH]n2)cc1 | -2
COc1cccc(/C=N/NC(=O)c2cc(-c3ccc4ccccc4c3)[nH]n2)c1 | -3
O=C(N/N=C/c1ccc2c(c1)OCCO2)c1cc(-c2ccc3ccccc3c2)[nH]n1 | 1
O=C(N/N=C/c1ccc(O)cc1)c1cc(-c2ccc3ccccc3c2)n[nH]1 | 17
O=C(N/N=C/c1cccc(O)c1)c1cc(-c2ccc3ccccc3c2)n[nH]1 | 10
COc1ccc2ccccc2c1/C=N/NC(=O)c1cc(-c2ccc3ccccc3c2)[nH]n1 | 6
COc1ccc(/C=N/NC(=O)c2cc(-c3ccc4ccccc4c3)[nH]n2)cc1OC | 57
O=C(N/N=C/c1cccc([N+](=O)[O-])c1)c1cc(-c2ccc3ccccc3c2)[nH]n1 | -2
O=C(N/N=C/c1ccccc1O)c1cc(-c2ccc3ccccc3c2)n[nH]1 | -6
COc1ccccc1/C=N/NC(=O)c1cc(-c2ccc3ccccc3c2)[nH]n1 | 4
O=C(N/N=C/c1ccccc1)c1cc(-c2ccc3ccccc3c2)[nH]n1 | 10
O=C(N/N=C/C1CCCCC1)c1cc(-c2ccc3ccccc3c2)[nH]n1 | -9
O=C(N/N=C/c1cccnc1)c1cc(-c2ccc3ccccc3c2)[nH]n1 | 18
O=C(N/N=C/c1cccc2ccccc12)c1cc(-c2ccc3ccccc3c2)[nH]n1 | -7
